Measured values: ChEMBL document CHEMBL5528046, “Discovery of Novel PROTAC Degraders of p300/CBP as Potential Therapeutics for Hepatocellular Carcinoma” (J Med Chem, 2024)

By UniProt entry, the sequences of proteins in these tests, tags left out. Where a name states a change or a piece, a line headed by the entry shows the natural chain unless it says otherwise.
UniProt Q09472: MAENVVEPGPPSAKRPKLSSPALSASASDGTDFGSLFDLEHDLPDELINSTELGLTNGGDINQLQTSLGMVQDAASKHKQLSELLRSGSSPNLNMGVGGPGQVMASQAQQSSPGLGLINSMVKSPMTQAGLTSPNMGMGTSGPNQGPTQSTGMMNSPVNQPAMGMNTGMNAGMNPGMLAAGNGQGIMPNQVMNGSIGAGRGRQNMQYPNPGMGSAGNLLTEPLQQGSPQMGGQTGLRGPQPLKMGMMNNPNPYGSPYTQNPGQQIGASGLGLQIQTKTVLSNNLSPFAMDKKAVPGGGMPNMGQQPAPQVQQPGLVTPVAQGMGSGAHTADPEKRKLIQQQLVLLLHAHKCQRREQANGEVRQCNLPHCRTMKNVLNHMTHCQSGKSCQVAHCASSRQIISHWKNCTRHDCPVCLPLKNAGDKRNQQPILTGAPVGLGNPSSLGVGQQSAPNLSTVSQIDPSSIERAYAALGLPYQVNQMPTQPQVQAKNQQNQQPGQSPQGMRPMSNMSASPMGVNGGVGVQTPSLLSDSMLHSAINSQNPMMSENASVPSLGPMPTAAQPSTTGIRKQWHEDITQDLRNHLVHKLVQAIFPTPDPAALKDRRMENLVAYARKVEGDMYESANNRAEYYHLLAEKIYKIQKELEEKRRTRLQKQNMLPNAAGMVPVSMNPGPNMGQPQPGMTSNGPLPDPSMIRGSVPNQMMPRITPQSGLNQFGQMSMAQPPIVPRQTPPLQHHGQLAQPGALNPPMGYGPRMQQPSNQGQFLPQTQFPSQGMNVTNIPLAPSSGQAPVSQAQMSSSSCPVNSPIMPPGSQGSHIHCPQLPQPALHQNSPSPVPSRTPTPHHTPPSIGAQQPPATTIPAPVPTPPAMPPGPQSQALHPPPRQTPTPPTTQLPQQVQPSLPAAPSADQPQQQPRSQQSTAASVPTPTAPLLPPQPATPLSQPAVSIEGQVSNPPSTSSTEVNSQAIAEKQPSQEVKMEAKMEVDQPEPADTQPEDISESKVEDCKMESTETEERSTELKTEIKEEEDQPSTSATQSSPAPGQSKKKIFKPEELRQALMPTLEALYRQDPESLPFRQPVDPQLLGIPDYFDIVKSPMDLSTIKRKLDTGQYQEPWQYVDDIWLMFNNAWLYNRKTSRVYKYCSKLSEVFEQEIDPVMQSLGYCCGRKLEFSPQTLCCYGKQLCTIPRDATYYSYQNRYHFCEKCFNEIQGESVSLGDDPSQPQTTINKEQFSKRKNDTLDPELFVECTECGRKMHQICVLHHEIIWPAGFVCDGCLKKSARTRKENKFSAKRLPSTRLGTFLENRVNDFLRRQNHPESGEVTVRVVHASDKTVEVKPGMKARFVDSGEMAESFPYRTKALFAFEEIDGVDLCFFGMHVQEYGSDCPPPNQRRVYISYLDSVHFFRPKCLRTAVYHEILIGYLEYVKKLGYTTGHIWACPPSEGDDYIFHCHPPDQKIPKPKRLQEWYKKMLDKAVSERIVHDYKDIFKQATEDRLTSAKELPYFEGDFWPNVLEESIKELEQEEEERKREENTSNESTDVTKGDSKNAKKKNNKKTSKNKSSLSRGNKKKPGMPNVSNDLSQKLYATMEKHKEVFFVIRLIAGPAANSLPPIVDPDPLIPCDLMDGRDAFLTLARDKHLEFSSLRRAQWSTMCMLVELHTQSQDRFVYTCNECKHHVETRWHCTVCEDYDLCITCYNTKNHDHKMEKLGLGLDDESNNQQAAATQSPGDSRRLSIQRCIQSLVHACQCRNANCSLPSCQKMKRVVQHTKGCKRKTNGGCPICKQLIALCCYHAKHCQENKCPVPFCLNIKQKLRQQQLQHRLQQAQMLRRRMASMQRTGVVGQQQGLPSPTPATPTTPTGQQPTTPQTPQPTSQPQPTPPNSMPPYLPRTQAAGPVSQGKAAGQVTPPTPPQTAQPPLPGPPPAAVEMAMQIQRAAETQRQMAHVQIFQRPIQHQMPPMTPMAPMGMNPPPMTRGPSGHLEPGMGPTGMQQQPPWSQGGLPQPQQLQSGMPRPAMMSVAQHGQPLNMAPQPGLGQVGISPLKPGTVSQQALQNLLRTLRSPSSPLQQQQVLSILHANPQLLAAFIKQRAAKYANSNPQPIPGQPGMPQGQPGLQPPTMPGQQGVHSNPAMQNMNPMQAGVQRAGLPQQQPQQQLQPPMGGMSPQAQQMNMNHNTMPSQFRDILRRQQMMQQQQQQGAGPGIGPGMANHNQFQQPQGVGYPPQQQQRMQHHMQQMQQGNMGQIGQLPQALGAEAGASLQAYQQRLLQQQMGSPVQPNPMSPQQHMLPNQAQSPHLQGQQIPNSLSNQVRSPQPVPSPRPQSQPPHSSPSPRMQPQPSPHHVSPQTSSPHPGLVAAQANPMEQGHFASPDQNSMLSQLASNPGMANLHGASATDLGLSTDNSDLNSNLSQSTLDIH
UniProt Q92793: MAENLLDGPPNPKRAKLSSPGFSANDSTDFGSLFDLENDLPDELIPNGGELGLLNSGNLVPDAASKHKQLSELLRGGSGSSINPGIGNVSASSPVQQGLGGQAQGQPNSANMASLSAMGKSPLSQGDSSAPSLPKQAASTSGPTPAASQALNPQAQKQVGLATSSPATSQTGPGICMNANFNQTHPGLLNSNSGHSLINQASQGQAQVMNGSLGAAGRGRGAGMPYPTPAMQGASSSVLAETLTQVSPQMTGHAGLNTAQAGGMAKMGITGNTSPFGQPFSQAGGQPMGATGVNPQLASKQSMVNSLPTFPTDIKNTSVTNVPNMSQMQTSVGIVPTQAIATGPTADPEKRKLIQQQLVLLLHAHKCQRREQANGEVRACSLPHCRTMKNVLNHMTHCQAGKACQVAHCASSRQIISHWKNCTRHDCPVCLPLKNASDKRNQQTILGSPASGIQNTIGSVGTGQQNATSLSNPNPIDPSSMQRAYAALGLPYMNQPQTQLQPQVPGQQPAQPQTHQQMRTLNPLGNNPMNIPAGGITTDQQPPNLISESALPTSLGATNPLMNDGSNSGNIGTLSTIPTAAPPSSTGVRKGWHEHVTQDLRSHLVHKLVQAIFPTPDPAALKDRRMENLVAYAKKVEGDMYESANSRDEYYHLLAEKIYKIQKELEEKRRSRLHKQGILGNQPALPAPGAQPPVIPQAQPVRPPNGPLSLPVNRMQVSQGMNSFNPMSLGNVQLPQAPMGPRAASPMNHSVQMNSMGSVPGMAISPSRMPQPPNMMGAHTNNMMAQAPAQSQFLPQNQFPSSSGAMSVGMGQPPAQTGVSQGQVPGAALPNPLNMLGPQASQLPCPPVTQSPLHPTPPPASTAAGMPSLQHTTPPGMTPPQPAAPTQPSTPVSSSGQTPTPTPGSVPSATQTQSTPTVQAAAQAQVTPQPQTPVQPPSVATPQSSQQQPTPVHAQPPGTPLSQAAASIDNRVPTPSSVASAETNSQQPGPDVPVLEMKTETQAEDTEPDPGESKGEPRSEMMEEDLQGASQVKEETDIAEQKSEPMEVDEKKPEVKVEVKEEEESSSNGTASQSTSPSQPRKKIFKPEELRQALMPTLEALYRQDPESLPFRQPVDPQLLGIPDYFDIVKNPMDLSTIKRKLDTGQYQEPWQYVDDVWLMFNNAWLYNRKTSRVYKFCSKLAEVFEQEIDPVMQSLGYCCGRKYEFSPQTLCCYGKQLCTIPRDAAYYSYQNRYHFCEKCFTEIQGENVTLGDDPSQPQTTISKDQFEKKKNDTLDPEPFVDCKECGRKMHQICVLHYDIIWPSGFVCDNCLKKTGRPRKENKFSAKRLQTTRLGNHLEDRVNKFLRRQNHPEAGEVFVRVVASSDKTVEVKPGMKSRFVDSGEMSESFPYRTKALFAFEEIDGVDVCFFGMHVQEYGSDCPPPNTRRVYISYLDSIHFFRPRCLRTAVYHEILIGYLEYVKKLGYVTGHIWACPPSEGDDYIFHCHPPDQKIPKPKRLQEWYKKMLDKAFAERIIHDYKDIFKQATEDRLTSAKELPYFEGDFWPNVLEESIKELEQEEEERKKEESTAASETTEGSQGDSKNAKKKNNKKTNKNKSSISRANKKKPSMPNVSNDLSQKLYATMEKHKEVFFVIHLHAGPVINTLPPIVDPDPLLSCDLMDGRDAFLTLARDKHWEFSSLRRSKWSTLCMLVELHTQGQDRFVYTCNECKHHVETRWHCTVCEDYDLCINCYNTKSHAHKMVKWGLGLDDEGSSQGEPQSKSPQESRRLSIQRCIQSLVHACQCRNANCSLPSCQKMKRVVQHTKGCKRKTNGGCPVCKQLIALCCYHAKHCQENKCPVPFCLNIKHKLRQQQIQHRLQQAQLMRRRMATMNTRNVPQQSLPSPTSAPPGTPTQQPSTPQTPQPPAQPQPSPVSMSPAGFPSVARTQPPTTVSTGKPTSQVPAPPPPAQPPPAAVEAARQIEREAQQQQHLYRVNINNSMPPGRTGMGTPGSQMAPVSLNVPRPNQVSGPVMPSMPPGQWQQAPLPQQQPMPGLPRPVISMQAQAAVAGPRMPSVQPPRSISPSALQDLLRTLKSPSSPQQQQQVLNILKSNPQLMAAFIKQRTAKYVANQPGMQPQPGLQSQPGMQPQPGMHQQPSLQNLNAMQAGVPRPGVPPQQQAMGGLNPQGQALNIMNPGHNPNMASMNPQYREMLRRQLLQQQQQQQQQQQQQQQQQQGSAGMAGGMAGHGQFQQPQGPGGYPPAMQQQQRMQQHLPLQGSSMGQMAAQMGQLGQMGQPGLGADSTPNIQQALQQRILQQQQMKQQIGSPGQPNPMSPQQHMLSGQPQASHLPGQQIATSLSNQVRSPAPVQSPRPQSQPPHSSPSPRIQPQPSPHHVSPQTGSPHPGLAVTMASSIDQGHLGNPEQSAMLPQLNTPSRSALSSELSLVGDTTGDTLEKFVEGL

Target: CREB-binding protein/Histone acetyltransferase p300 (Homo sapiens, UniProt Q09472+Q92793)
Test: Inhibition of p300/CBP (unknown origin) using histone H3 (1 to 21 residues) as substrate incubated for 90 mins by AlphaLISA assay
Format: protein assay

- IC50: 32 nM
SMILES: CO[C@H]1CC[C@H](n2c([C@@H]3CCCC(=O)N3c3ccc(F)c(F)c3)nc3cc(-c4c(C)noc4C)ccc32)CC1 [INOBRODIB]
